This series concerns Musca domestica L. As to the kind of experiment: Contact test on non-porous tile, Musca domestica. It is filed as in vivo. The following applies: 48 h; for Mortality %/time (h): single substance alone; for Mortality %: 25° C, insects on treated tile. On the procedure: 1 ml of Composition 1 was applied to the tile. […] 1 ml of Composition 8a was distributed on the tile. […] 1 ml of Composition 8a was distributed on a tile. […] At the end of the 30 minutes, the flies were transferred to an untreated area.
1 ml of Composition 3 was applied to the tile. […] 1 ml of Composition 8c was distributed on the tile. […] 1 ml of Composition 8c was distributed on a tile. […] At the end of the 30 minutes, the flies were transferred to an untreated area.
1 ml of Composition 9a was distributed on the tile. […] 1 ml of Composition 9a was distributed on a tile. […] At the end of the 30 minutes, the flies were transferred to an untreated area. […] 1 ml of Composition 10a was distributed on the tile. […] 1 ml of Composition 10a was distributed on a tile. […] At the end of the 30 minutes, the flies were transferred to an untreated area. […] 1 ml of Composition 8c was distributed on the tile. […] 1 ml of Composition 8c was distributed on a tile. […] At the end of the 30 minutes, the flies were transferred to an untreated area.
1 ml of Composition 5a, was distributed on the tile. […] 1 ml of Composition 6a was distributed on the tile. […] 1 ml of Composition 7a was distributed on the tile.
1 ml of Composition 3 was distributed on the tile. […] 1 ml of Composition 9a was distributed on the tile. […] 1 ml of Composition 11a was distributed on a tile. […] 1 ml of Composition 12a was distributed on a tile.
1 ml of Composition 3 was distributed on the tile. […] 1 ml of Composition 17a was distributed on a tile. […] 1 ml of Composition 18a was distributed on a tile. […] Each experiment (A-C) was conducted in duplicate.
1 ml of Composition 23a was distributed on the tile. […] 1 ml of Composition 20a was distributed on a tile. […] Each experiment (A-B) was conducted in duplicate.
1 ml of Composition 3 was distributed on the tile. […] 1 ml of Composition 25a was distributed on a tile. […] Each experiment (A-B) was conducted in duplicate.
1 ml of Composition 23a was distributed on the tile. […] 1 ml of Composition 27a was distributed on a tile. […] Each experiment (A-B) was conducted in duplicate.
1 ml of Composition 43 was distributed on the tile. […] 1 ml of Composition 26a was distributed on a tile. […] 1 ml of Composition 26b was distributed on a tile. […] 1 ml of Composition 26c was distributed on a tile.
1 ml of Composition 43 was distributed on the tile. […] 1 ml of Composition 22a was distributed on a tile. […] 1 ml of Composition 22b was distributed on a tile. […] 1 ml of Composition 22c was distributed on a tile.
1 ml of Composition 23a was distributed on the tile. […] 1 ml of Composition 44a was distributed on a tile.
1 ml of Composition 43 was distributed on the tile. […] 1 ml of Composition 33 was distributed on a tile. […] 1 ml of Composition 33 was distributed on a tile. […] At the end of the 30 minutes, the flies were transferred to an untreated area.
1 ml of Composition 1 was distributed on the tile. […] 1 ml of Composition 34 was distributed on a tile. […] 1 ml of Composition 34 was distributed on a tile. […] At the end of the 30 minutes, the flies were transferred to an untreated area.
1 ml of Composition 3 was distributed on the tile. […] 1 ml of Composition 31a was distributed on a tile. […] 1 ml of Composition 31b was distributed on a tile. […] 1 ml of Composition 31b was distributed on a tile. […] At the end of the 30 minutes, the flies were transferred to an untreated area. […] 1 ml of Composition 38a was distributed on a tile. […] 1 ml of Composition 38a was distributed on a tile. […]

The values that follow come from US20260215418A1, “HYDROCARBON ALCOHOLS AND THEIR DERIVATIVES AS SYNERGISTS IN PESTICIDE ACTIVITY” (priority 2022, published 2026).

Take Oleic alcohol [Oleic alcohol 95%]: under “0.68 mg/ml”, the “Mortality %/time (h)” value is reported as 6/48 ^ %.
As for Spinosad, the “Mortality %/time (h)” value (0.24 mg/ml) is given as 33/48 ^ %.
Consider “Spinosad [Composition 43, reference compound]”, for which the Mortality % (Example 19) is 33%, the Mortality % (Example 23) was found to be 33% and the Mortality % (Example 27) was found to be 33%.
